US12202828B2, “Bicyclic heterocycle compounds and their uses in therapy” (ASTEX THERAPEUTICS LIMITED, priority 2013, dated 2025)

B1: Interferon-β (protein, UniProt P01574 22-187, looked up)
Interferon beta: MSYNLLGFLQRSSNFQCQKLLWQLNGRLEYCLKDRMNFDIPEEIKQLQQFQKEDAALTIYEMLQNIFAIFRQDSSSTGWNETIVENLLANVYHQINHLKTVLEEKLEKEDFTRGKLMSSLHLKRYYGRILHYLKAKEYSHCAWTIVRVEILRNFYFINRLTGYLRN

System: SK-MEL-28
Test: Combination protocol for apoptosis, SK-MEL-28
Type: cell-based, human
Conditions: for % Apoptosis Combination: agent 500 u/ml with Example 2 0.1 μM + 1 ng/ml TNF-α, 24 h; for Fold Increase: combination (agent 500 u/ml) relative to Example 2 0.1 μM + TNF-α alone
Description: No increase in apoptosis was seen over this time scale with the combination agent shown in the first column of the table alone (with or without TNF-α)—data not shown.

| Molecule | % Apoptosis Combination | Fold Increase |
| --- | --- | --- |
| Interferon-α2 | 53.9% | 1.3 |
| B1 | 70.9% | 1.7 |
